Data as given in PMC8620908, “Design, Synthesis, In Vitro Anticancer Evaluation and Molecular Modelling Studies of 3,4,5-Trimethoxyphenyl-Based Derivatives as Dual EGFR/HDAC Hybrid Inhibitors” (Pharmaceuticals, 2021).

Columns and labels:
Details in all cases: HepG2, versus control
Bcl-2 = Bcl-2 level assay in HepG2 cancer cell line; type: cell-based
Caspase-3 = Caspase-3 level assay in HepG2 cancer cell line; type: cell-based, human
Bax = Bax level assay in HepG2 cancer cell line; type: cell-based
Caspase-8 = Caspase-8 level assay in HepG2 cancer cell line; type: cell-based, human

CN[C@@H]1C[C@H]2O[C@@](C)([C@@H]1OC)n1c3ccccc3c3c4c(c5c6ccccc6n2c5c31)C(=O)NC4 [Staurosporine]
Bcl-2 Fold Change (Bcl-2): 0.36 fold
Caspase-3 Fold Change (Caspase-3): 4.71 fold
Bax Fold Change (Bax): 3.4 fold
Caspase-8 Fold Change (Caspase-8): 3.93 fold
